## CycPeptMPDB entries from one study

Data: CycPeptMPDB; original report Kelly et al. 2021, doi:10.1021/jacs.0c06115.

PAMPA measures passive passage through an artificial lipid membrane.
Permeability is given as log10 of P in cm/s; higher (less negative) is more permeable.

structure (SMILES) | PAMPA (log10 cm/s)
CC(=O)N1CCC[C@H]1C(=O)N(C)[C@@H](CC(C)C)C(=O)N[C@@H]1C(=O)N(C)[C@H](CC(C)C)C(=O)N(C)[C@H](CC(C)C)C(=O)N[C@H](CC(C)C)C(=O)N(C)[C@H](C)C(=O)N[C@@H](CC(C)C)C(=O)N2CCC[C@@H]2C(=O)O[C@@H]1C | -5.08
CC(=O)N1CCC[C@H]1C(=O)N(C)[C@H](CC(C)C)C(=O)N[C@@H]1C(=O)N[C@H](CC(C)C)C(=O)N(C)[C@H](CC(C)C)C(=O)N[C@H](CC(C)C)C(=O)N(C)[C@H](C)C(=O)N[C@@H](CC(C)C)C(=O)N2CCC[C@@H]2C(=O)O[C@@H]1C | -5.21
CC(=O)N1CCC[C@H]1C(=O)N[C@@H]1C(=O)N[C@H](CC(C)C)C(=O)N[C@H](CC(C)C)C(=O)N[C@@H](CC(C)C)C(=O)N[C@@H](CC(C)C)C(=O)N(C)[C@@H](C)C(=O)N[C@@H](CC(C)C)C(=O)N2CCC[C@@H]2C(=O)O[C@@H]1C | -6.20
CC(=O)N[C@@H]1C(=O)N2CCC[C@H]2C(=O)N(C)[C@H](CC(C)C)C(=O)N[C@H](CC(C)C)C(=O)N[C@H](CC(C)C)C(=O)N[C@H](CC(C)C)C(=O)N(C)[C@@H](C)C(=O)N[C@@H](CC(C)C)C(=O)N2CCC[C@@H]2C(=O)O[C@@H]1C | -6.46
CC(=O)N1CCC[C@H]1C(=O)N(C)[C@H](CC(C)C)C(=O)N[C@@H]1C(=O)N[C@H](CC(C)C)C(=O)N(C)[C@@H](CC(C)C)C(=O)N(C)[C@H](CC(C)C)C(=O)N(C)[C@H](C)C(=O)N[C@H](CC(C)C)C(=O)N2CCC[C@H]2C(=O)O[C@@H]1C | -5.30
CC(=O)N1CCC[C@H]1C(=O)N(C)[C@H](CC(C)C)C(=O)N[C@@H]1C(=O)N(C)[C@H](CC(C)C)C(=O)N(C)[C@H](CC(C)C)C(=O)N[C@H](CC(C)C)C(=O)N[C@@H](C)C(=O)N[C@H](CC(C)C)C(=O)N2CCC[C@@H]2C(=O)O[C@@H]1C | -5.53
CC(=O)N1CCC[C@@H]1C(=O)N(C)[C@@H](CC(C)C)C(=O)N[C@@H]1C(=O)N(C)[C@H](CC(C)C)C(=O)N(C)[C@@H](CC(C)C)C(=O)N[C@@H](CC(C)C)C(=O)N(C)[C@H](C)C(=O)N[C@@H](CC(C)C)C(=O)N2CCC[C@@H]2C(=O)O[C@@H]1C | -6.01
CC(=O)N1CCC[C@@H]1C(=O)N(C)[C@@H](CC(C)C)C(=O)N[C@@H]1C(=O)N(C)[C@H](CC(C)C)C(=O)N(C)[C@H](CC(C)C)C(=O)N(C)[C@@H](CC(C)C)C(=O)N(C)[C@@H](C)C(=O)N[C@@H](CC(C)C)C(=O)N2CCC[C@@H]2C(=O)O[C@@H]1C | -5.42
CC(=O)N1CCC[C@@H]1C(=O)N(C)[C@@H](CC(C)C)C(=O)N[C@@H]1C(=O)N[C@@H](CC(C)C)C(=O)N(C)[C@@H](CC(C)C)C(=O)N(C)[C@@H](CC(C)C)C(=O)N(C)[C@H](C)C(=O)N[C@@H](CC(C)C)C(=O)N2CCC[C@H]2C(=O)O[C@@H]1C | -5.72
CC(=O)N1CCC[C@@H]1C(=O)N(C)[C@H](CC(C)C)C(=O)N[C@@H]1C(=O)N[C@H](CC(C)C)C(=O)N(C)[C@H](CC(C)C)C(=O)N(C)[C@H](CC(C)C)C(=O)N[C@@H](C)C(=O)N[C@@H](CC(C)C)C(=O)N2CCC[C@H]2C(=O)O[C@@H]1C | -7.24
CC(=O)N1CCC[C@@H]1C(=O)N(C)[C@@H](CC(C)C)C(=O)N[C@@H]1C(=O)N[C@H](CC(C)C)C(=O)N[C@H](CC(C)C)C(=O)N(C)[C@@H](CC(C)C)C(=O)N[C@@H](C)C(=O)N[C@H](CC(C)C)C(=O)N2CCC[C@H]2C(=O)O[C@@H]1C | -6.06
CC(=O)N1CCC[C@@H]1C(=O)N(C)[C@@H](CC(C)C)C(=O)N[C@@H]1C(=O)N[C@@H](CC(C)C)C(=O)N(C)[C@H](CC(C)C)C(=O)N[C@@H](CC(C)C)C(=O)N(C)[C@H](C)C(=O)N[C@H](CC(C)C)C(=O)N2CCC[C@@H]2C(=O)O[C@@H]1C | -5.19
CC(=O)N1CCC[C@@H]1C(=O)N(C)[C@H](CC(C)C)C(=O)N[C@@H]1C(=O)N[C@H](CC(C)C)C(=O)N[C@H](CC(C)C)C(=O)N(C)[C@@H](CC(C)C)C(=O)N(C)[C@@H](C)C(=O)N[C@H](CC(C)C)C(=O)N2CCC[C@H]2C(=O)O[C@@H]1C | -5.87
CC(=O)N1CCC[C@@H]1C(=O)N(C)[C@@H](CC(C)C)C(=O)N[C@@H]1C(=O)N[C@H](CC(C)C)C(=O)N[C@H](CC(C)C)C(=O)N[C@@H](CC(C)C)C(=O)N[C@@H](C)C(=O)N[C@@H](CC(C)C)C(=O)N2CCC[C@H]2C(=O)O[C@@H]1C | -6.53
CC(=O)N1CCC[C@@H]1C(=O)N(C)[C@H](CC(C)C)C(=O)N[C@@H]1C(=O)N(C)[C@@H](CC(C)C)C(=O)N[C@H](CC(C)C)C(=O)N(C)[C@@H](CC(C)C)C(=O)N(C)[C@@H](C)C(=O)N[C@@H](CC(C)C)C(=O)N2CCC[C@@H]2C(=O)O[C@@H]1C | -5.45
CC(=O)N1CCC[C@H]1C(=O)N[C@@H]1C(=O)N[C@H](CC(C)C)C(=O)N(C)[C@H](CC(C)C)C(=O)N[C@H](CC(C)C)C(=O)N(C)[C@@H](CC(C)C)C(=O)N[C@@H](C)C(=O)N[C@@H](CC(C)C)C(=O)N2CCC[C@@H]2C(=O)O[C@@H]1C | -5.23
CC(=O)N1CCC[C@@H]1C(=O)N(C)[C@@H](CC(C)C)C(=O)N[C@@H]1C(=O)N[C@H](CC(C)C)C(=O)N(C)[C@@H](CC(C)C)C(=O)N[C@@H](CC(C)C)C(=O)N(C)[C@@H](C)C(=O)N[C@H](CC(C)C)C(=O)N2CCC[C@H]2C(=O)O[C@@H]1C | -5.43
CC(=O)N1CCC[C@H]1C(=O)N[C@@H]1C(=O)N[C@H](CC(C)C)C(=O)N[C@@H](CC(C)C)C(=O)N[C@@H](CC(C)C)C(=O)N[C@H](CC(C)C)C(=O)N(C)[C@@H](C)C(=O)N[C@@H](CC(C)C)C(=O)N2CCC[C@@H]2C(=O)O[C@@H]1C | -4.89
CC(=O)N[C@@H]1C(=O)N2CCC[C@H]2C(=O)N(C)[C@H](CC(C)C)C(=O)N(C)[C@@H](CC(C)C)C(=O)N[C@H](CC(C)C)C(=O)N(C)[C@H](CC(C)C)C(=O)N[C@H](C)C(=O)N[C@@H](CC(C)C)C(=O)N2CCC[C@@H]2C(=O)O[C@@H]1C | -5.34
CC(=O)N1CCC[C@H]1C(=O)N(C)[C@H](CC(C)C)C(=O)N[C@@H]1C(=O)N(C)[C@@H](CC(C)C)C(=O)N(C)[C@H](CC(C)C)C(=O)N(C)[C@@H](CC(C)C)C(=O)N(C)[C@@H](C)C(=O)N[C@H](CC(C)C)C(=O)N2CCC[C@@H]2C(=O)O[C@@H]1C | -5.29
CC(=O)N1CCC[C@H]1C(=O)N(C)[C@@H](CC(C)C)C(=O)N[C@@H]1C(=O)N[C@@H](CC(C)C)C(=O)N[C@H](CC(C)C)C(=O)N[C@H](CC(C)C)C(=O)N[C@@H](C)C(=O)N[C@@H](CC(C)C)C(=O)N2CCC[C@H]2C(=O)O[C@@H]1C | -7.31

The 3 highest values of PAMPA among the entries above:

| structure (SMILES) | PAMPA (log10 cm/s) |
|---|---|
| CC(=O)N1CCC[C@H]1C(=O)N[C@@H]1C(=O)N[C@H](CC(C)C)C(=O)N[C@@H](CC(C)C)C(=O)N[C@@H](CC(C)C)C(=O)N[C@H](CC(C)C)C(=O)N(C)[C@@H](C)C(=O)N[C@@H](CC(C)C)C(=O)N2CCC[C@@H]2C(=O)O[C@@H]1C | -4.89 |
| CC(=O)N1CCC[C@H]1C(=O)N(C)[C@@H](CC(C)C)C(=O)N[C@@H]1C(=O)N(C)[C@H](CC(C)C)C(=O)N(C)[C@H](CC(C)C)C(=O)N[C@H](CC(C)C)C(=O)N(C)[C@H](C)C(=O)N[C@@H](CC(C)C)C(=O)N2CCC[C@@H]2C(=O)O[C@@H]1C | -5.08 |
| CC(=O)N1CCC[C@@H]1C(=O)N(C)[C@@H](CC(C)C)C(=O)N[C@@H]1C(=O)N[C@@H](CC(C)C)C(=O)N(C)[C@H](CC(C)C)C(=O)N[C@@H](CC(C)C)C(=O)N(C)[C@H](C)C(=O)N[C@H](CC(C)C)C(=O)N2CCC[C@@H]2C(=O)O[C@@H]1C | -5.19 |

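Lipid, pH, incubation time, direction and concentration are not recorded in the data file. The list need not hold all peptides of the study. Entries at the database's floor value (log10 P of -10) are not listed.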